Target: cytidine deaminase (CDA) (Homo sapiens (Human), UniProt P32320)
Details: presence of CDA, after 2 hours

Sequences of proteins named here, by UniProt entry; tags and fusion partners are left off. A change or cut given only in a name is not applied to a line headed by its entry.
UniProt P32320: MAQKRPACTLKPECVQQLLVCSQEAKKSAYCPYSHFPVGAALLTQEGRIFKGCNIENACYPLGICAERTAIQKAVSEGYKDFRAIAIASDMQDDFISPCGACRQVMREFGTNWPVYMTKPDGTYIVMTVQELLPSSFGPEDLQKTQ

Nc1ncn([C@H]2C[C@H](O)[C@@H](CO)O2)c(=O)n1 [decitabine, 5-aza-2′-deoxycytidine]
concentration of decitabine: ~0 % control
